# Assays:
# ADCCR1 cells = assay: ADCC assay (specific lysis by NK92-CD16V effector cells) on ADCC-resistant cells; assay type: cell-based, human; settings: FIG. 29
# From the text: (§1) Inhibitors of histone acetyltransferase C646 (cat. no. S7152), DNA methyltransferase azacytidine (cat. no. S1782), histone demethylase GSK J4 HCL (cat. no. S7070), and HDAC panobinostat (cat. no. S1030) were purchased from Selleck Chemicals. Inhibitors were solubilized in DMSO at […]. Vehicle treatment (DMSO) was used at the highest equivalent v/v used in inhibitor treatments.
# (§2) ADCC assays were preformed using A431/ADCCS1/ADCCR1 as target cells and NK92-CD16V cells as the effector cells. Target cells are plated at 10,000 cells/well overnight (A431 cells double overnight).
# ADCCS1 cells = assay: ADCC assay (specific lysis by NK92-CD16V effector cells) on ADCC-sensitive cells; assay type: cell-based, human; settings: FIG. 29
# From the text: as §1, §2
smiles,measurement,setting,value
N#CC[C@H](C1CCCC1)n1cc(-c2ncnc3[nH]ccc23)cn1 [ruxolitinib],ADCC magnitude of cytotoxicity after ruxolitinib exposure,ADCCR1 cells,not in ADCCR1 cells
same,ADCC magnitude of cytotoxicity after ruxolitinib exposure,ADCCS1 cells,increases the ADCC magnitude of cytotoxicity
